# Test results published in patent publication US6495517B2, “Cyclooxygenase inhibitor” (A. Natterman & Cie. GmbH, priority 1998, dated 2002).
# Key:
# mice = assay: Acute toxicity, intravenous administration to mice; assay type: in vivo, mouse; conditions: dissolved in physiological saline (5 g/kg administered)
# Experimental: Concerning the toxicity of compounds A and B, their LD50 values were determined through use of mice and rats. […] One of the compounds, S-(2-phenylcarbamoyl-phenylselenyl)albumin, was tested for the acute toxicity. The compound was dissolved in physiological saline and was intravenously administered to mice (5 g/kg). Its LD50 was much higher than 1 g/kg, thus confirming its high safety level.
# mouse = assay: LD50 determination, intraperitoneal administration; assay type: in vivo; conditions: administered intraperitoneally
# Experimental: Concerning the toxicity of compounds A and B, their LD50 values were determined through use of mice and rats. […] One of the compounds, S-(2-phenylcarbamoyl-phenylselenyl)albumin, was tested for the acute toxicity. […].
# Wistar strain male rats = assay: Acute toxicity test, intravenous administration to rats; assay type: in vivo, rat; conditions: intravenous 1 g/kg/3 ml, observed twenty-four hours
# From the text: (§1) Four Wistar strain male rats at 8 weeks of age were subjected to an acute toxicity test.
# [1] = target: T1, Cyclooxygenase 2 derived from sheep placentae (Ovis aries, UniProt P79208); assay: In vitro inhibition of cyclooxygenase 2 activity (synthesis of prostaglandin H2 from 14C-arachidonic acid, TLC autoradiography); conditions: sheep placenta COX-2, 35° C., 30 min
# T1 sequence (P79208 17-603): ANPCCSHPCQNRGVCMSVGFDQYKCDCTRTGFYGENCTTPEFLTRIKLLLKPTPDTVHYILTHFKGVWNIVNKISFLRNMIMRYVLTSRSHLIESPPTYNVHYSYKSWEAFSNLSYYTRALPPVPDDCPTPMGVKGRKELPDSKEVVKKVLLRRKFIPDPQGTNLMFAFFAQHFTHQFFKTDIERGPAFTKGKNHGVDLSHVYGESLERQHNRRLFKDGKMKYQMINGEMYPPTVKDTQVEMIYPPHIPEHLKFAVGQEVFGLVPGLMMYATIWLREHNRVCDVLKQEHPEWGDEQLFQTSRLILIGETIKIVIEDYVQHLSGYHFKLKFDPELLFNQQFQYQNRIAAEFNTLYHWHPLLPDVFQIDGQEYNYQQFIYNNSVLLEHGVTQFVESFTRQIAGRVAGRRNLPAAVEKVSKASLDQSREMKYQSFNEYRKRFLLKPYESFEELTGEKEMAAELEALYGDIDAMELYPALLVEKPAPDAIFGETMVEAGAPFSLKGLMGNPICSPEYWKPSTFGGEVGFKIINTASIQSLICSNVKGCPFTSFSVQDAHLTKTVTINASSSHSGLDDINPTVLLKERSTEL
# mouse and rat = assay: Much higher doses of administration to mouse and rat; assay type: in vivo; conditions: both mouse and rat
# From the text: as §1
# rat = assay: LD50 determination in rats; assay type: in vivo
substance,measurement,setting,value
S-(2-phenylcarbamoyl-phenylselenyl)-albumin [Compound B],LD50,mice,higher than 1 g/kg
same,LD50,mouse,740 mg/kg
same,Side effects,Wistar strain male rats,no particular side effect was noticed
same,Survival,Wistar strain male rats,all rats survived healthily
same,Generated Amount of Prostaglandin H2 (%),[1]; dose of compound 1 μM,78.33 ± 10.58%
same,Generated Amount of Prostaglandin H2 (%),[1]; dose of compound 3 μM,72.13 ± 4.53 %
same,Generated Amount of Prostaglandin H2 (%),[1]; dose of compound 10 μM,35.40 ± 1.49 %
same,Side effects,mouse and rat,no problematic side effect was observed
same,LD50,rat,large doses were required
